# Data: publication PMC9728921, “Characterization of a KDM5 small molecule inhibitor with antiviral activity against hepatitis B virus” (PLOS ONE, 2022)
# Target: T1, NSD2 (Homo sapiens, UniProt O96028)
# T1 construct: Full Length; purchased RBC (read as Reaction Biology Corporation, named)
# T1 sequence (O96028 1-1365): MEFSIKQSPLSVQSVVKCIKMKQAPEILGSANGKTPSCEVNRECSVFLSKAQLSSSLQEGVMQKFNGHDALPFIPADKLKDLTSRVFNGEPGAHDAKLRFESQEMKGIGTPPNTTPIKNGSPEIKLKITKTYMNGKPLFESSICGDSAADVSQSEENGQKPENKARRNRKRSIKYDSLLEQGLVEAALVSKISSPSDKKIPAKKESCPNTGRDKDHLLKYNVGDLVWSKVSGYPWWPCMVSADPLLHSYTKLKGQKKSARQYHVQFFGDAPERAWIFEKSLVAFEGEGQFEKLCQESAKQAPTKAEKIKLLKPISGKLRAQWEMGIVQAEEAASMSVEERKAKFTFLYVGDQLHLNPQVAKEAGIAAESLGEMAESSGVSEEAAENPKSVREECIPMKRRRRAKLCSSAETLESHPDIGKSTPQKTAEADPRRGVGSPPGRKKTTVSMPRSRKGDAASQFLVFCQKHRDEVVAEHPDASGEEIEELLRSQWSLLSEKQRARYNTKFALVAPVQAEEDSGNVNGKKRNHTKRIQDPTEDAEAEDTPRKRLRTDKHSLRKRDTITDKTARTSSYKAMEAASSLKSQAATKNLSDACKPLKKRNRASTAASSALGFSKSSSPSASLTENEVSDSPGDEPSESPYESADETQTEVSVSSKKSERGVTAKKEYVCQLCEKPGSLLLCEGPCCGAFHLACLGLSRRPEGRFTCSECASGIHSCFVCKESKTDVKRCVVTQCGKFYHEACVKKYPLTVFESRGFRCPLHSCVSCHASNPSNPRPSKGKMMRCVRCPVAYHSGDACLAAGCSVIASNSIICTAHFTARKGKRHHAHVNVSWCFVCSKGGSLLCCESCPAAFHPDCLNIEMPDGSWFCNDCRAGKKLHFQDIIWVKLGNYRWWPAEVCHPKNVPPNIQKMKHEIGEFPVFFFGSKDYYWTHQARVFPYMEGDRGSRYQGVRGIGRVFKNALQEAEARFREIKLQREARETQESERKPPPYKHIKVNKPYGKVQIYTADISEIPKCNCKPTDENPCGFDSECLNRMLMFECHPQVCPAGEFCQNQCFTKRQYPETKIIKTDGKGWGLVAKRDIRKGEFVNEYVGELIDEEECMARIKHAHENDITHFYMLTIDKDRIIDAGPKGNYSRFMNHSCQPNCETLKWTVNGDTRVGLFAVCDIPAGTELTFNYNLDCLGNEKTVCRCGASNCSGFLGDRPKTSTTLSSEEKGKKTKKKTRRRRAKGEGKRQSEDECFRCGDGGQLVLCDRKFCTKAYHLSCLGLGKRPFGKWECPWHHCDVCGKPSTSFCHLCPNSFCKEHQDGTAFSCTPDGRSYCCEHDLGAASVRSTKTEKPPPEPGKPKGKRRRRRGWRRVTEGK
# Assay: Histone methyltransferase enzymatic assay, NSD2
# Assay type: biochemical
# Procedure: Histone methyltransferase assays were performed in 96-well half-area optiplates (PerkinElmer) at room temperature. All concentrations are final unless noted otherwise. Compounds were serially diluted in DMSO and the final DMSO concentration was 1%. A 24 μL reaction mixture contained compound, enzyme, 200 nM of nucleosome or histone substrate, 400 nM ^3H-SAM (83.1 Ci/mmol), 50 mM Tris-HCl (pH 8.0), 50 mM NaCl, 5 mM MgCl2, 1 mM DTT, and 0.01% Tween-20. The plate was sealed, mixed on a Titramax plate shaker at 1200 rpm for 30 sec, and incubated at room temperature for 60 min. The reaction was quenched by addition of 24 μL mixture containing 5 mg/mL PVT-PEI beads and 300 μM unlabeled SAM in water. The plate was sealed, mixed as previously noted, incubated overnight, and read on a TopCount plate reader (PerkinElmer).
# Data was analyzed using GraphPad Prism 6.0 (La Jolla, CA). […] IC50 values were calculated as an average of at least two independent experiments.
smiles,measurement,value
"Nc1ncnc2c1ncn2[C@@H]1O[C@H](CSCC[C@H](N)C(=O)O)[C@@H](O)[C@H]1O [SAH, S-(5′-Adenosyl)-L-homocysteine, reference compound]",IC50,11 µM
